This is a selection; strong and weak results do not stand in their true shares. The source made the active and inactive calls.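 The calls were made as follows: active = mean inhibition of at least 50% with a set share of replicates also reaching that level; inconclusive = no clear call, values can overlap the other calls; inactive = the rest.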
Assay: CD40 pathway blockade in BL2 B cells – cell-based, luciferase reporter, single point, primary screen (AID 1053188);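 also: 0% = neutral control wells and 100% = IKK inhibitor VII at 50 µM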
Settings: BL2 NF-kB luciferase reporter, CD40L-induced, 4 h; at 10 µM; hits give high values

Row | SMILES | inhibition
1 | CN(C)C(=O)Oc1noc2ccccc12 | inactive: 13.7%
2 | CC(NC(=O)COC(=O)C(O)(c1ccccc1)c1ccccc1)c1ccccc1 (centres undefined) | inactive: 1.03%
3 | CCNC(=S)/N=C(\N)N[N+](=O)[O-] | inactive: 1.88%
4 | O=P1(N(CCCl)CCCl)OCCC2CCCCN21 (centres undefined) | inactive: 2.77%
5 | CC(=O)Nc1ccc(Oc2c([N+](=O)[O-])cc([N+](=O)[O-])cc2[N+](=O)[O-])cc1 | inactive: -1.59%
6 | CC(C)(C)C(=O)NC(Sc1ccccc1)C(Cl)(Cl)Cl (centres undefined) | inactive: 5.21%
7 | c1nnnn1CCn1cnnn1 | inactive: 17.4%
8 | C/C(N)=N\P(=O)(OCc1ccccc1)OCc1ccccc1 | inactive: 1.22%
9 | COc1ccc(N)c([N+](=O)[O-])c1[N+](=O)[O-] | inactive: 2.5%
10 | c1cc(-c2nn[nH]n2)ccc1-c1nn[nH]n1 | inactive: 1.65%
11 | O=[N+]([O-])c1cccc2n[nH]nc12 | inactive: 4.49%
12 | O=[N+]([O-])c1cc([N+](=O)[O-])c(CCNc2ccccc2)c([N+](=O)[O-])c1 | inactive: -4.93%
13 | CN1CCCC(OC(=O)C(c2ccccc2)c2ccccc2)C1 (centres undefined) | inactive: 20.6%
14 | CCCC1OP(N)(=O)OCC1CC (centres undefined) | inactive: 4.3%
15 | COc1cc(C(=O)NCC2(N3CCOCC3)CCCCC2)ccc1OCC(C)C | inactive: 3.69%
16 | O=[N+]([O-])c1cc(Oc2ccc([N+](=O)[O-])cc2C(F)(F)F)cc([N+](=O)[O-])c1 | inactive: 14%
17 | O=C(OC1CN2CCC1CC2)c1cccc([N+](=O)[O-])c1 (centres undefined) | inactive: 4.74%
18 | O=C(COc1ccccc1)OC1CN2CCC1CC2 (centres undefined) | inactive: 3.11%
19 | O=C(O)C(=O)c1ccc(N(CCCl)CCCl)cc1 | inactive: -12.1%
20 | CC1CCNP(=O)(N(CCCl)CCCl)O1 (centres undefined) | inactive: -0.686%
21 | O=C(O)C(O)c1ccc(N(CCCl)CCCl)cc1 (centres undefined) | inactive: 4.48%
22 | COP(=O)(OC)N1CC1c1ccccc1 (centres undefined) | inactive: 7.11%
23 | COc1ccccc1CNC(=O)COC(=O)C(O)(c1ccccc1)c1ccccc1 | inactive: 4.48%
24 | CN(C(=O)Cc1ccc(Cl)c(Cl)c1)[C@@H]1CCCC[C@H]1N1CCCC1 | inactive: 4.9%
25 | CC(C)/C=N\N=C(\N)N[N+](=O)[O-] | inactive: 7.83%
26 | CCC1=CC2Cc3nc4ccc(Cl)cc4c(N)c3C(C1)C2 (centres undefined) | active: 61.4%
27 | CN(C(=O)Cc1ccc(Cl)c(Cl)c1)[C@H]1CC[C@@]2(CCCO2)C[C@@H]1N1CCCC1 | inactive: 9.1%
28 | CN(C(=O)Cc1ccccc1)[C@@H]1CC[C@]2(CCCO2)C[C@H]1N1CCCC1 | inactive: 0.894%
29 | N#CCCN(C(=O)COC(=O)C(O)(c1ccccc1)c1ccccc1)c1ccc(F)cc1 | inactive: 12%
